The assay has as its target T1, Acetylcholinesterase (AChE) (EC 3.1.1.7) (Homo sapiens, UniProt P22303).
T1 construct: purchased Sigma-Aldrich Pte Ltd (Nucleos, Singapore)
Nature of the assay: AChE inhibition assay (modified Ellman's method). Type of assay: biochemical. Here is the method:
Male Swiss mice (age, 8 weeks; weight, 25–27 g) were purchased from Military Medical University (Hanoi, Vietnam) and housed in a regulated environment (21 ± 2 °C, 12 h light/dark cycle, light period starting at 7 AM) with free access to food and water. Acetylcholinesterase (AChE) (EC 3.1.1.7), butyrylcholinesterase (BChE) (EC 3.1.1.8) and scopolamine hydrobromide (>98 %) were obtained from Sigma-Aldrich Pte Ltd (Nucleos, Singapore). […] Other chemicals were of the highest grade available.
The inhibitory activities of the ChEs were measured using a modified Ellman’s method. Acetylthiocholine and butyrylthiocholine were used as substrates to examine the inhibitory effect of sample on the AChE and BChE action, respectively. […] The hydrolysis of AChE or BChE was monitored at 412 nm based on the formation of yellow 5-thio-2-nitrobenzoate anion from the reaction of DTNB with thiocholine, which was released by enzymatic hydrolysis of either AChE or BChE. […] The reaction was performed in triplicate and recorded in 96-well microplates using a microplate reader (VersaMax ELISA, USA). Percent inhibition was calculated from (1–S/E) × 100, where E and S were the enzyme activities […] the tested sample, respectively.
A general note: DTNB colorimetry detects thiols as they appear.

Chains of the proteins cited; added tags and fusions are not shown. Residues count along the entry.
UniProt P22303, 32-614: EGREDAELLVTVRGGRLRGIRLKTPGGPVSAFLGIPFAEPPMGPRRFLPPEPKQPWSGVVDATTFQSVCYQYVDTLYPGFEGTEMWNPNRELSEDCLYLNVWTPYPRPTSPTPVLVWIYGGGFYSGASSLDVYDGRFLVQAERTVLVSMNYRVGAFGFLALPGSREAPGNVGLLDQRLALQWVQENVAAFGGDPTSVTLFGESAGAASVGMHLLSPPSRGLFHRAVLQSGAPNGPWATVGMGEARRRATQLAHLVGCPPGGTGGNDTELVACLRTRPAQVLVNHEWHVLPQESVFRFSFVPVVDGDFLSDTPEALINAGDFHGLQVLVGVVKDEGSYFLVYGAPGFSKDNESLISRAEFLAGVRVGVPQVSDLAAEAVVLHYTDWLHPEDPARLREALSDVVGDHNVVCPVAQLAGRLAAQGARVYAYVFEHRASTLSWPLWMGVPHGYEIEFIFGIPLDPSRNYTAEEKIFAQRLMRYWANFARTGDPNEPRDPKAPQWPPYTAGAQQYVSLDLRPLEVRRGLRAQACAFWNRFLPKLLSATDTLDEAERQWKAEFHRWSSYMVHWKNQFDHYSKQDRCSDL

From PMC4973094, “Anti-cholinesterases and memory improving effects of Vietnamese Xylia xylocarpa” (Chemistry Central Journal, 2016) come the findings set out here.

As usually defined, the IC50 is the concentration at which inhibition is half-maximal. Lower therefore signals greater potency in that assay.

Each structure is given as a SMILES string.

`COc1ccc2cc3[n+](cc2c1OC)CCc1cc2c(cc1-3)OCO2` [Berberine, berberine, reference compound] came in with an IC50 of 670 nM.
